T1: interleukin-23 receptor (IL-23R) (human, UniProt Q5VWK5 24-629)
T1 sequence (looked up): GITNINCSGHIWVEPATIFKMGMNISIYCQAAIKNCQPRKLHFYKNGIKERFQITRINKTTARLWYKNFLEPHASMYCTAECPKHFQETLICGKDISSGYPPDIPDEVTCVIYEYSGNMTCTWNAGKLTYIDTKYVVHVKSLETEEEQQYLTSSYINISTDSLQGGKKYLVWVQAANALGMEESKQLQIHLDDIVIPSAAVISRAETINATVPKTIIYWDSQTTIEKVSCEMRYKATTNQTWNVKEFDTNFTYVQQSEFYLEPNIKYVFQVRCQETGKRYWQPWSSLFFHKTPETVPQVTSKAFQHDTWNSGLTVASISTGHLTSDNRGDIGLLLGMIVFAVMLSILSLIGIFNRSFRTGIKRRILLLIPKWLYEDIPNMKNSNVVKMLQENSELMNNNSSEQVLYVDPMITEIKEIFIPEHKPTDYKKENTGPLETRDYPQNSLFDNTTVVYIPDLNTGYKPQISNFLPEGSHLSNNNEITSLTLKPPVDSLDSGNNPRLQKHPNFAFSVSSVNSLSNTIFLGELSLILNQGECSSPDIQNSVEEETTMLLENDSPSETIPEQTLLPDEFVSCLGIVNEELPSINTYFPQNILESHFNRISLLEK


Target: T1, interleukin-23 receptor (IL-23R)
Experiment: cell-based or functional assay

Binder	IC50, NK Cell Assay (IFNγ in supernatant of human NK cells stimulated with IL-23 and IL-18)
XNTXKXFXKKNLY (Ac-[Pen]-N-T-[W(7-Me)]-[Lys(Ac)]-[Pen]-Phe[4-(2-aminoethoxy)]-[2-Nal]-[a-MeLys]-[Lys(Ac)]-N-[(D)Leu]-[(D)NMeTyr]-NH2; cyclized via Pen-Pen disulfide bond) [Peptide No. 47 (SEQ ID NO: 47)]	1.7 nM
XNTXKXFXKKNKY (Ac-[Pen]-N-T-[W(7-Me)]-[Lys(Ac)]-[Pen]-Phe[4-(2-aminoethoxy)]-[2-Nal]-[a-MeLys]-[Lys(Ac)]-N-[(D)Lys]-[(D)NMeTyr]-NH2; cyclized via Pen-Pen disulfide bond) [Peptide No. 48 (SEQ ID NO: 48)]	1.01 nM
XNTXKXFXXENXX (Ac-[Pen]-N-T-[W(7-Me)]-[Lys(Ac)]-[Pen]-Phe[4-(2-aminoethoxy)]-[2-Nal]-[THP]-E-N-[3Pal]-[Sarc]-NH2; cyclized via Pen-Pen disulfide bond) [Peptide No. 104 (SEQ ID NO: 104)]	0.0192 nM
XNTXKXFXKKNXY (Ac-[Pen]-N-T-[W(7-Me)]-[Lys(Ac)]-[Pen]-Phe[4-(2-aminoethoxy)]-[2-Nal]-[a-MeLys]-[Lys(Ac)]-N-[3Pal]-[(D)NMeTyr]-NH2; cyclized via Pen-Pen disulfide bond) [Peptide No. 120 (SEQ ID NO: 120)]	0.0512 nM

Source: patent US20210261622A1 (Janssen / Centocor, published 2021)
